Nrf2 ARE act = qHTS of Nrf2 Activators. hit rate 0.31% among 410,000. Potency, µM (highest dose often 46.1 µM), inactives show at the top dose activation, hits mostly activators. AREc32 ARE-luciferase reporter (MCF7-derived line), luminescence, 24 h. AID 624171, 2012; further: % of control where 0% means no effect; nearly all actives have a fitted effect of over 65% in size
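AREc32 cells carrying an ARE-driven firefly luciferase, 1000 cells/well in OPTI-MEM with 5% FBS, dosed after overnight attachment and incubated 24 hr at 37 deg C. Steady-Glo luminescence read after 30 min at RT.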
A549 viability = Nrf2 qHTS screen for inhibitors: counterscreen for cytotoxicity; A549 ARE-Fluc cells, CellTiter-Fluor viability, 18-24 h; Potency, µM (highest dose often 46 µM), without a hit: top-dose activity change, negative = cytotoxicity, actives largely listed as inhibitors; hit rate 0.16% among 390,000; AID 504648, 2011; further: on the % scale 0 is the no-effect control and ±100 the full control effect
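Cytotoxicity counterscreen: CellTiter-Fluor fluorescence was measured in A549 ARE_Fluc cells after 18-24 h of compound exposure in a concentration series. The subsequent BugLite luminescent read reports ARE-luciferase activity.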
Rango complex inh = qHTS Assay for Inhibitors of Rango (Ran-regulated importin-beta cargo) - Importin beta complex formation; Importin subunit beta-1 (Homo sapiens), Q14974; Rango CFP/YFP FRET sensor + importin beta, 45 min; Potency, µM (doses to about 92.2 µM), for inactives: at the top dose inhibition of complex formation; hit rate 0.031% among 340,000; AID 540263, 2011; calls by dose curve;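 further: 0% = DMSO wells and 100% = buffer wells lacking importin beta; nearly all actives have a fitted effect of over 15% in size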
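FRET biosensor Rango (snurportin 1 IBB between N-terminal EYFP and C-terminal Cerulean), 50 nM in PBS/1 mM DTT/0.02% Tween-20/0.1% BSA, preincubated 5 min RT with compound; 0.125 microM importin beta added, 45 min RT, CFP/YFP FRET ratio read.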
Rango dissoc inh = qHTS Assay for Inhibitors of RanGTP induced Rango (Ran-regulated importin-beta cargo) - Importin beta complex dissociation | Snurportin-1 (Homo sapiens) + GTP-binding nuclear protein Ran (Homo sapiens) + Importin … | Biochemical FRET Rango-importin beta, RanGTP-induced dissociation | Potency, µM (doses to about 46.1 µM), without a hit: top-dose activity change, negative = inhibition | hit rate 0.071% among 340,000; calls by dose curve; further: % of control where 0% means no effect; nearly all actives have a fitted effect of over 45% in size
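Quantitative HTS using a FRET biosensor: 0.1 uM Rango, 0.25 uM importin beta, 0.6 uM Ran, 2 mM GTP, 0.2 uM RCC1 final, PBS with DTT, Tween-20 and BSA. Post-read taken 45 min after Ran addition.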
Nrf2 inh = Nrf2 qHTS screen for inhibitors. A549 ARE-Fluc reporter, luciferase luminescence, 18-24 h. Potency, µM (titrated, usually from 46 µM), for the others: top-dose activity change, negative = inhibition, actives largely listed as inhibitors. hit rate 2.1% among 360,000; further: on the % scale 0 is the no-effect control and ±100 the full control effect; nearly all actives have a fitted effect of over 60% in size
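Quantitative HTS in A549 cells stably bearing an antioxidant response element-firefly luciferase construct. Inhibition of Nrf2-driven transcription was scored by luminescence after 18-24 h of compound exposure at 37 °C.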
* marks the source's active call; other numbers are inactive results; u = inconclusive; x = no result given. Hits are enriched below; roughly 2.3% of the tested compounds scored in any of these assays. Unless noted, the call rests on the fitted dose curve; in most records, active means well fitted curve in the direction sought with a large enough effect; inconclusive means small, poorly fitted or top-dose-only effect, or another doubt; inactive means no such curve, though single readings can be large; an effect the other way counts as inactive or inconclusive. Potency means the concentration at half of the fitted maximal effect.

Amino acid sequences for entries named in this document (tags omitted).
Importin subunit beta-1 (Homo sapiens), Q14974, UniProt Q14974, whole entry, looked up: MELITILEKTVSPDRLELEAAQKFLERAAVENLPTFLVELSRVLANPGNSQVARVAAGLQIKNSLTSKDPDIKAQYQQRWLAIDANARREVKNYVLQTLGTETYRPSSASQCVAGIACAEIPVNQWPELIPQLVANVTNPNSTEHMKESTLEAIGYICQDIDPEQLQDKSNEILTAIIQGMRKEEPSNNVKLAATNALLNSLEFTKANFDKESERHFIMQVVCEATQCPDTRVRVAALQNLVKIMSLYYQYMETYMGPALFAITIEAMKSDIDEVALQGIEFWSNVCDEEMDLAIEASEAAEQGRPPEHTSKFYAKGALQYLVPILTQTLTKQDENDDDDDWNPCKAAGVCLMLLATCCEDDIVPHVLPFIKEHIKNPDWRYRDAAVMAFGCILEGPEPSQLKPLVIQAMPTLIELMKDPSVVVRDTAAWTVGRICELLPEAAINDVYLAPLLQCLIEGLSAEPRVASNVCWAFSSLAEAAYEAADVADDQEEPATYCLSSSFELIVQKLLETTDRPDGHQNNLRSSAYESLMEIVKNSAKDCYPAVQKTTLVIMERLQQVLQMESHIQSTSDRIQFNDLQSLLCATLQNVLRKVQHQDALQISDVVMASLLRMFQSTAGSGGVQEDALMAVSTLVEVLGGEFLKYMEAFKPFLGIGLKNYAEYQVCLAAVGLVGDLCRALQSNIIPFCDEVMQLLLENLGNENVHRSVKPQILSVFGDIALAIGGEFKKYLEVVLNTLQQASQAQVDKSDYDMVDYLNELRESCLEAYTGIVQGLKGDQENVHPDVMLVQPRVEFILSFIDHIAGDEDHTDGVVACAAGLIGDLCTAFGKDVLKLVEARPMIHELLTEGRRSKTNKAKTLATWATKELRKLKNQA

1) Cc1ccc(-n2c(SCC(=O)N/N=C/c3c(C)nn(-c4ccccc4)c3C)nc3ccccc3c2=O)cc1
2) Cc1nn(-c2ccccc2)c(C)c1/C=N/NC(=O)CSc1nc2ccccc2c(=O)n1-c1ccc(Br)cc1
3) CC(C(=O)NCc1ccc(F)cc1)n1ccc2cc(S(=O)(=O)N3CCCC3)ccc21 (centres undefined)
4) COc1cc(F)c(S(=O)(=O)N2CCCN(S(=O)(=O)c3cccc(NC(C)=O)c3)CC2)c(F)c1
5) NC(=O)c1ccc(NC(=O)CN2C(=O)NC3(CCCCCCC3)C2=O)cc1
6) CC(=O)Nc1cccc(S(=O)(=O)N2CCCCCC2)c1
7) CC(CC(=O)Nc1cccc(S(=O)(=O)N2CCCCC2)c1)c1ccccc1 (centres undefined)
8) CCOc1ccc(NC(=O)CSc2cn(CC(=O)N3CCCCCC3)c3ccccc23)cc1

screen / no.,1,2,3,4,5,6,7,8
Nrf2 ARE act,0.6%,-0.2%,-0.7%,x,-0.5%,0.3%,-0.6%,5.3%
Rango dissoc inh,5.1%,0.6%,12.0%,x,-12.7%,-2.8%,5.8%,x
A549 viability,8.2µM*,18.4µM*,-17.3%,-8.9%,4.5%,-2.0%,u,-1.3%
Rango complex inh,-2.4%,u,2.3%,x,2.06µM*,1.7%,1.3%,x
Nrf2 inh,u,25.9µM*,20.6µM*,16.4µM*,15.2%,9.9%,13µM*,5.8%

Next part; it opens with the 2 that closed the last part.
7) CC(CC(=O)Nc1cccc(S(=O)(=O)N2CCCCC2)c1)c1ccccc1 (centres undefined)
8) CCOc1ccc(NC(=O)CSc2cn(CC(=O)N3CCCCCC3)c3ccccc23)cc1
9) CC(=O)c1ccccc1OCC(=O)Nc1cccc(S(=O)(=O)N2CCCC2)c1
10) CCOc1ccccc1OCC(=O)Nc1cccc(S(=O)(=O)N2CCCCCC2)c1
11) COc1ccc(CNC(=O)C(C)N2CCN(S(=O)(=O)c3ccccc3F)CC2)cc1 (centres undefined)
12) O=C(Cn1nnc(-c2ccccc2)n1)Nc1cccc(S(=O)(=O)N2CCCC2)c1
13) CCN(CC)S(=O)(=O)c1ccc(C)c(NC(=S)Nc2cccc(S(=O)(=O)N3CCCCCC3)c2)c1
14) O=C(Cn1cnnn1)Nc1cccc(S(=O)(=O)N2CCCCC2)c1
15) CCCc1ccc(S(=O)(=O)N2CCN(C(C)C(=O)NCc3ccc(OC)cc3)CC2)cc1 (centres undefined)
16) Cc1nc(-c2ccc(S(=O)(=O)NCc3ccc(OC(C)C)cc3)cc2)co1

screen / no.,7,8,9,10,11,12,13,14,15,16
Nrf2 ARE act,-0.6%,5.3%,4.6%,4.1%,0.2%,-0.5%,-0.2%,-0.7%,3.1%,3.2%
Rango dissoc inh,5.8%,x,3.6%,-17.1%,0.0%,-9.3%,-1.8%,-5.0%,11.9%,x
A549 viability,u,-1.3%,0.0%,2.7%,-0.7%,-5.0%,-5.0%,-7.2%,u,-4.0%
Rango complex inh,1.3%,x,-1.5%,2.1%,-0.4%,-1.8%,-1.5%,6.0%,-0.7%,x
Nrf2 inh,13µM*,5.8%,13µM*,3.8%,17.8%,16.4µM*,23.1µM*,-10.3%,16.4µM*,x

17) CCOc1ccccc1C(=O)NCc1ccc2c(c1)CCN2C(C)=O
18) CCOc1ccc(CCNC(=O)CCn2ccc3cc(S(=O)(=O)N4CCCC4)ccc32)cc1
19) CC(CNC(=O)Cn1ccc2cc(S(=O)(=O)N3CCCCCC3)ccc21)c1ccccc1 (centres undefined)
20) Cc1ccc(OCC(=O)Nc2cccc(S(=O)(=O)N3CCCC3)c2)cc1C
21) CC1CCC2(CC1)NC(=O)N(CC(=O)Nc1cccc(S(=O)(=O)N3CCCC3)c1)C2=O (centres undefined)
22) CC(=O)c1ccc(OCC(=O)Nc2cccc(S(=O)(=O)N3CCCC3)c2)cc1
23) O=C1CCc2cc(S(=O)(=O)Nc3ccc4ccccc4c3)ccc2N1
24) CCOC(=O)c1cccc(NC(=O)CC(c2ccc(F)cc2)N2Cc3ccccc3C2=O)c1 (centres undefined)
25) N/C(=N/OC(=O)c1ccccc1Cl)c1nonc1N
26) N/C(=N\OC(=O)c1ccc(F)cc1)c1nonc1N

screen / no.,17,18,19,20,21,22,23,24,25,26
Nrf2 ARE act,20.5%,3.4%,-0.7%,-0.1%,-0.4%,3.6%,x,0.7%,12.6µM*,3.4%
Rango dissoc inh,x,1.0%,x,x,17.9%,1.8%,x,x,16.0%,2.4%
A549 viability,-19.2%,-8.0%,-1.1%,x,-0.6%,4.7%,6.9%,4.0%,-8.0%,11.2%
Rango complex inh,x,-0.7%,x,x,-3.0%,0.0%,x,x,5.7%,-2.8%
Nrf2 inh,x,25.9µM*,20.6µM*,x,5.17µM*,16.4µM*,u,12.4%,u,13.3%

Rango complex inh, entries above that show a hit.
No. | SMILES | Nrf2 ARE act | Rango dissoc inh | Rango complex inh | Nrf2 inh
5 | NC(=O)c1ccc(NC(=O)CN2C(=O)NC3(CCCCCCC3)C2=O)cc1 | -0.5% | -12.7% | 2.06µM* | 15.2%

Source: PubChem
